Assay [1] concerns the target reuptake of noradrenaline (NA) in synaptosomes (Rattus norvegicus, UniProt Q63380). In words: Inhibition of NA reuptake in synaptosomes. The settings on record: read-out: NA-uptake IC50, 3H-NA. An excerpt:
(§1) Compounds of the invention may be tested for their ability to inhibit reuptake of the monoamines dopamine, noradrenaline and serotonin in synaptosomes e.g. such as described in WO 97/30997 (NeuroSearch A/S). Based on the balanced activity observed in these tests the compound of the invention is considered useful for the treatment, prevention or alleviation of a disease or a disorder or a condition of a mammal, including a human, which disease, disorder or condition is responsive to inhibition of monoamine neurotransmitter re-uptake in the central nervous system.
(§2) Compounds were tested for their ability to inhibit the reuptake of the monoamine neurotransmitters dopamine (DA) noradrenaline (NA) and serotonine (5-HT) in synaptosomes as described in WO 97/16451.
(§3) The test values are given as IC50 (the concentration (μM) of the test substance which inhibits the specific binding of ^3H-DA, ^3H-NA, or ^3H-5-HT by 50%).

By UniProt entry, the sequences of proteins in these tests, tags left out. Residues count along the entry.
UniProt Q63380, 1-617: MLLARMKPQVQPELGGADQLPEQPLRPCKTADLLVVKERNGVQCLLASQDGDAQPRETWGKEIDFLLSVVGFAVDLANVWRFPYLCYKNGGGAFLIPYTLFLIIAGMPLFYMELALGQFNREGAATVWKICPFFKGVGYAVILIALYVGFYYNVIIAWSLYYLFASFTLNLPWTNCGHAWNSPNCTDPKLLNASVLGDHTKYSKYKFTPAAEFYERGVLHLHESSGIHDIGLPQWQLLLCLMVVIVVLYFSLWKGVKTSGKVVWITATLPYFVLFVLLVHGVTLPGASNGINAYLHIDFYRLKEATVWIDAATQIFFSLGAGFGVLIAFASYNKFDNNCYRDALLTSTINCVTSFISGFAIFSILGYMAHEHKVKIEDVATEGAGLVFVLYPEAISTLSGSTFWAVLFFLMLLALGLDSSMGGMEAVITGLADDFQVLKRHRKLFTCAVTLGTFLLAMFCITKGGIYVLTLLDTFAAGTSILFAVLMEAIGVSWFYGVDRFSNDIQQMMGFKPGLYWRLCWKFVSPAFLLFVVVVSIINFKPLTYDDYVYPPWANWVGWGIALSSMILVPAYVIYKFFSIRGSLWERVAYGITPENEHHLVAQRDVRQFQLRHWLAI
UniProt P23977, whole entry: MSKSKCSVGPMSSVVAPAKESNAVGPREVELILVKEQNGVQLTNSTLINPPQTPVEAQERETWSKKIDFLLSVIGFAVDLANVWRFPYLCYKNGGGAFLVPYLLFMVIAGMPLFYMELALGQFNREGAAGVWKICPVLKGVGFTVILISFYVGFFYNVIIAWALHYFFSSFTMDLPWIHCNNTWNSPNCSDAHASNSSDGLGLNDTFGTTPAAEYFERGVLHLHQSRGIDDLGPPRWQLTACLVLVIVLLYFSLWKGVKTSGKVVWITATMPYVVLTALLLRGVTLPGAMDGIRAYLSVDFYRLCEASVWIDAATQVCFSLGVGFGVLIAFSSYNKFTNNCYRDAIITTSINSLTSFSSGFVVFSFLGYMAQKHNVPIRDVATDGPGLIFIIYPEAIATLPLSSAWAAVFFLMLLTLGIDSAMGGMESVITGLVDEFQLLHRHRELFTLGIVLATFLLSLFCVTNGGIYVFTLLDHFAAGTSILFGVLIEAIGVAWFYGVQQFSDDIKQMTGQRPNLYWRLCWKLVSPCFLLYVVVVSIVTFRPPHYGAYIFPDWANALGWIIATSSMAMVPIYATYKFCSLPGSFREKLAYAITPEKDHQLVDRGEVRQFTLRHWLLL
UniProt P31652, whole entry: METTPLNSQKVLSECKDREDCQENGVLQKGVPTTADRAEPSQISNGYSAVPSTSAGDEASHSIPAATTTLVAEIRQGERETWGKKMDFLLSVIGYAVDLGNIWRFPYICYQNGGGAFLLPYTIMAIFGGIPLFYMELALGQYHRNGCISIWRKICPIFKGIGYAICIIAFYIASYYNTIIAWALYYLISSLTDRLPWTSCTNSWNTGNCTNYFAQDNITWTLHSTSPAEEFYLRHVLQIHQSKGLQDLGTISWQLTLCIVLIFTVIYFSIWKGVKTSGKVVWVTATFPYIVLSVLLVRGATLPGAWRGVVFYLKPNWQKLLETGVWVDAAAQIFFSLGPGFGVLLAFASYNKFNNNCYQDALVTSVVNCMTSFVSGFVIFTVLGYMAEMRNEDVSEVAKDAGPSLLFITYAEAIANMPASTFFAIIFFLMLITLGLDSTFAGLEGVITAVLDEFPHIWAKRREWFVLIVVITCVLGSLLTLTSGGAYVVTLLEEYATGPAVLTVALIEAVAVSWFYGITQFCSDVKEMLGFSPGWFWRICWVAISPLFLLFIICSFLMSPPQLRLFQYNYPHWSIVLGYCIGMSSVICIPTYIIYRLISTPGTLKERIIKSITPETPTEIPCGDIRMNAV

Assay [2] has as its target reuptake of dopamine (DA) in synaptosomes (Rattus norvegicus, UniProt P23977). In words: Inhibition of DA reuptake in synaptosomes. The following applies: read-out: DA-uptake IC50, 3H-DA.
From the text: as §1, §2, §3

Assay [3] concerns the target reuptake of serotonine (5-HT) in synaptosomes (Rattus norvegicus, UniProt P31652). Briefly: Inhibition of 5-HT reuptake in synaptosomes. The following applies: read-out: 5-HT-uptake IC50, 3H-5-HT.
From the text: as §1, §2, §3

We go through two compounds from US20110009449A1.

SMILES strings stand for the structures. This is a selection: effects in other tests are not listed, and their absence says nothing.

In general, IC50 refers to the concentration that inhibits the measured activity by half. Regarding `CCC(=O)N(c1ccc(Cl)c(OC)c1)C1CCNCC1`, the IC50 is 2.4 nM in assay [1], above 1000 nM in assay [2] and 7 nM in assay [3].

Regarding `CCC(=O)N(c1ccc(Cl)c(Cl)c1)C1CCNCC1`, the figures for the IC50 in assay [1], in assay [2] and in assay [3] were 2 nM, 380 nM and 7.2 nM, respectively.
